# Reported logP (octanol/water) values for industrial, environmental and drug-like chemicals

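These are experimental values that the OPERA curators gathered from public databases to train and test their QSAR models. One number stands for a compound and property, with no spread given. Method, purity and exact conditions of the single measurements are not given. Where a salt, mixture or single isomer is drawn, the source does not say that exactly this form was tested. Unmarked limits or estimates from the upstream databases cannot be ruled out.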

logP is the log10 of the octanol-water partition coefficient; higher is more lipophilic.
"–" marks a cell with nothing listed here.

| structure (SMILES) | name | log Kow |
|---|---|---|
| CCOc1ccc2c(c1)C(C)=CC(C)(C)N2 | Ethoxyquin | 3.19 |
| CCOC(=O)C(C)C1CCCCC1 (stereo not given) | Cyclohexaneacetic acid, .alpha.-methyl-, ethyl ester | 4.03 |
| CC(C)(C(=O)c1cccnc1)c1cccnc1 | Metyrapone | 1.8 |
| CC(C)c1ccc(C(C)C)cc1 | 1,4-Diisopropylbenzene | 5.23 |
| O=Cc1ccc(B(O)O)cc1 | 4-Formylphenylboronic acid | 1.36 |
| CCCCC(CC)COCC(O)COc1ccc(-c2nc(-c3ccc(C)cc3C)nc(-c3ccc(C)cc3C)n2)c(O)c1 (stereo not given) | – | 9.63 |
| CC(C)NCC(O)COc1ccccc1C1CC2CCC1C2 (stereo not given) | Bornaprolol | 4.17 |
| COC(=O)N/N=C/c1c[n+]([O-])c2ccccc2[n+]1[O-] | Carbadox | 0.13 |
| CC(=O)c1ccc(Cl)cc1Cl | 1-(2,4-Dichlorophenyl)ethan-1-one | 2.675 |
| CC(O)COCC(C)O (stereo not given) | 1,1'-Oxybis-2-propanol | -1.5 |
| O=P(O)(O)C(Sc1ccc(Cl)cc1)P(=O)(O)O | Tiludronic acid | -0.6 |
| C=CC(=O)OCCN(C)S(=O)(=O)C(F)(F)C(F)(F)C(F)(F)C(F)(F)F | 2-(N-Methylperfluorobutylsulfonamido)ethyl acrylate | 4.19 |
| CC(C)N1CCN(c2ccc(OC[C@H]3CO[C@](Cn4cncn4)(c4ccc(Cl)cc4Cl)O3)cc2)CC1 | Terconazole | 4.5 |
| C=C[Si](C)(C)O[Si](C)(C)C=C | Divinyltetramethyldisiloxane | 5.4 |
| CCCCOc1ccccc1 | Butyl phenyl ether | 4.26 |
| Cc1cc(N)n(-c2ccccc2)n1 | 3-Methyl-1-phenyl-1H-pyrazol-5-amine | 1.773 |
| CC(C)(C)COC(=N)O | 2,2-Dimethylpropyl hydrogen carbonimidate | 0.94 |
| O=C1CCCCCCCCCCC(=O)OCCO1 | 1,4-Dioxacyclohexadecane-5,16-dione | 3.65 |
| C=C[C@H]1CC[C@H]([C@H]2CC[C@H](c3ccc(C)cc3)CC2)CC1 | (Trans(Trans))-4'-vinyl-4-(4-methylphenyl)bicyclohexyl | 4.7 |
| CC(C)(C1CCC(OCC2CO2)CC1)C1CCC(OCC2CO2)CC1 (stereo not given) | – | 4 |
| CC(=O)NCCCS(=O)(=O)O | Acamprosate | -1.1 |
| CCCCCCCCN=c1cc[nH]cc1 | N-Octylpyridin-4(1H)-imine | 2.28 |
| O=c1ccn(O)c2ccccc12 | 1-Hydroxyquinolin-4(1H)-one | -0.47 |
| ClC1=C[C@@H](Cl)[C@@H](Cl)[C@H](Cl)[C@H]1Cl (relative stereo) | – | 3.85 |
| O=[N+]([O-])c1cc(Cl)cc(Cl)c1O | Phenol, 2,4-dichloro-6-nitro- | 1.91 |
| CC(C)=CCO | 3-Methyl-2-buten-1-ol | 0.91 |
| O=S(=O)([O-])CCN1CCOCC1.[Na+] | 4-Morpholineethanesulfonic acid, sodium salt (1:1) | -2.36 |
| CCCCCCCCCCCCCCCC[N+](C)(C)CC(=O)[O-] | – | 0.009 |
| COc1c(C)c2c(c(O)c1C/C=C(\C)CCC(=O)O)C(=O)OC2 | Mycophenolic acid | 2.28 |
| Cl.Oc1ncccn1 | Pyrimidine-2-ol hydrochloride | -1.61 |
| NCCCNC1CCCCC1 | N-(3-Aminopropyl)cyclohexylamine | 0.73 |
| CC[N+](CC)(CC)CCC(O)(c1ccccc1)C1CCCCC1 (stereo not given) | Tridihexethyl | 1.17 |
| CCN(Cc1ccccc1)c1ccc(/C=C(\C#N)C(=O)OCC[N+](C)(C)C)cc1.[Cl-] | – | -0.3 |
| N=c1[nH]c2c(s1)CC(N)CC2 (stereo not given) | 2-Imino-2,3,4,5,6,7-hexahydro-1,3-benzothiazol-6-amine | 0.2 |
| C=C[C@]1(C)C[C@@H](OC(=O)CS[C@@H]2C[C@H]3CC[C@@H](C2)N3C)C2(C)[C@H](C)CC[C@]3(CCC(=O)[C@@H]23)[C@@H](C)[C@@H]1O | Retapamulin | 5 |
| C[C@]1(Cn2ccnn2)[C@H](C(=O)O)N2C(=O)C[C@H]2S1(=O)=O | Tazobactam | -2.7 |
| NCCCNCCN | N-(2-Aminoethyl)-1,3-propanediamine | -1.52 |
| O=P(Oc1ccccc1)(Oc1ccccc1)O[C@H]1CO[C@H]2[C@@H]1OC[C@H]2OP(=O)(Oc1ccccc1)Oc1ccccc1 | 1,4:3,6-Dianhydro-2,5-bis-O-(diphenoxyphosphoryl)-D-glucitol | 3.3 |
| CC1(C)C(=O)N(Cl)C(=O)N1Br | 1-Bromo-3-chloro-5,5-dimethylhydantoin | 0.35 |
| COc1ccc(/C=C(\C#N)C(=O)O)cc1OC | (E)-2-Cyano-3-(3,4-dimethoxyphenyl)prop-2-enoic acid | -0.221 |
| CCCC(=O)OCn1cc2c(=O)n(COC(=O)CCC)cnc2n1 | – | 1.6 |
| C=CC(C)C(O)c1ccc(Cl)cc1 (stereo not given) | 1-(4-chloro-phenyl)-2-methyl-but-3-en-1-ol | 3.3 |
| OC[C@H]1O[C@@H](n2cnc3c2NC=NC[C@H]3O)C[C@@H]1O | Pentostatin | -1.1 |
| CCC(=O)OC(OP(=O)(CCCCc1ccccc1)CC(=O)N1C[C@H](C2CCCCC2)C[C@H]1C(=O)O)C(C)C (some centres not stated) | Fosinopril | 6.3 |
| N#[N+]c1ccc(Nc2ccccc2)cc1.O=S(=O)([O-])O | Benzenediazonium, 4-(phenylamino)-, sulfate (1:1) | 1.28 |
| Nc1cc(Cl)c(NC2=NCCN2)c(Cl)c1 | – | 1.4 |
| CC(=O)CC(=O)Nc1ccc2[nH]c(=O)[nH]c2c1 | 3-Oxo-N-(2-oxo-2,3-dihydro-1H-benzimidazol-5-yl)butanamide | -0.1 |
| Cc1cc(C)c(C#N)c(O)n1 | 3-Cyano-4,6-dimethyl-2-hydroxypyridine | 2.03 |

A selection of 6 entries from above:

{"smiles": "O=c1ccn(O)c2ccccc12", "name": "1-Hydroxyquinolin-4(1H)-one", "log Kow": "-0.47"}
{"smiles": "CC(C)(C)COC(=N)O", "name": "2,2-Dimethylpropyl hydrogen carbonimidate", "log Kow": "0.94"}
{"smiles": "COc1c(C)c2c(c(O)c1C/C=C(\\C)CCC(=O)O)C(=O)OC2", "name": "Mycophenolic acid", "log Kow": "2.28"}
{"smiles": "CC(C)(C(=O)c1cccnc1)c1cccnc1", "name": "Metyrapone", "log Kow": "1.8"}
{"smiles": "O=P(O)(O)C(Sc1ccc(Cl)cc1)P(=O)(O)O", "name": "Tiludronic acid", "log Kow": "-0.6"}
{"smiles": "CC(C)c1ccc(C(C)C)cc1", "name": "1,4-Diisopropylbenzene", "log Kow": "5.23"}

Data: OPERA 2.9 data sets, kmansouri/OPERA on GitHub.